{
  "sequences": {"note": "Chains of the proteins cited; added tags and fusions are not shown. Lines headed by an entry give the natural chain unless they say otherwise; changes in a name come on top.", "UniProt Q16656": "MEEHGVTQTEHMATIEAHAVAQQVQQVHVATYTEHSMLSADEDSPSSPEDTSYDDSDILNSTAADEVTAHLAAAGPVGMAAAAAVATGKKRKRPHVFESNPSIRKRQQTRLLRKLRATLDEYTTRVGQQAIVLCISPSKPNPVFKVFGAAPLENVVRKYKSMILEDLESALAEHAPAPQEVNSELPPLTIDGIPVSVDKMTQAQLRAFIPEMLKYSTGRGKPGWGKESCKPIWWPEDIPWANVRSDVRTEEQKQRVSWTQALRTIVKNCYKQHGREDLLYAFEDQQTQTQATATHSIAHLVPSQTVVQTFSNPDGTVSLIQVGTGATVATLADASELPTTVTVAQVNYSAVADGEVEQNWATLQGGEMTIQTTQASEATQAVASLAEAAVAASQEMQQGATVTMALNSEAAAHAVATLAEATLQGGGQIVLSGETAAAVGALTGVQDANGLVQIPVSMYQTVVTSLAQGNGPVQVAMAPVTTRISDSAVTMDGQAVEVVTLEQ"},
  "source": "PubChem BioAssay (EPA / NIEHS)",
  "note": "The list shows a part of the results, in another mix than the full data. Activity calls are given as the source filed them. The calls were made as follows: active = hit-call score of the fitted dose curve at least 0.9, where 1 is the maximum; inactive = score below 0.9.",
  "data": [
    {"target": "Nuclear respiratory factor 1 (Homo sapiens) (UniProt Q16656)", "assay": "ATG_NRF1_CIS: Attagene CIS-FACTORIAL HepG2 Assay for human Nuclear Respiratory Factor 1 (NRF1) Orphan Gene (AID 2282987)", "conditions": "HepG2 NRF1 cis-element reporter, Attagene multiplex; actives raise or lower the signal", "procedure": "ATG_CIS is a cell-based, multiplexed-readout assay that uses HepG2, a human liver cell line, with measurements taken at 24 hours after chemical dosing in a 24-well plate.ATG_NRF1_CIS is one of 52 assay component(s) measured or calculated from the ATG_CIS assay. It is designed to make measurements of mRNA induction, a form of inducible reporter, as detected with fluorescence intensity signals by Reverse transcription polymerase chain reaction (RT-PCR) and Capillary electrophoresis technology.Data from the assay component ATG_NRF1_CIS was analyzed into 1 assay endpoint. This assay endpoint, ATG_NRF1_CIS, was analyzed with bidirectional fitting relative to DMSO as the negative control and baseline of activity. Using a type of inducible reporter, measures of mRNA for gain or loss-of-signal activity can be used to understand the reporter gene at the transcription factor-level as they relate to the gene NRF1. Furthermore, this assay endpoint can be referred to as a primary readout, because this assay has produced multiple assay endpoints where this one serves a reporter gene function. To generalize the intended target to other relatable targets, this assay endpoint is annotated to the dna binding intended target family, where the subfamily is nuclear respiratory factors.\nHuman liver HepG2 cells are transiently transfected with multiple reporter transcription units (MRTUs) in 6-well plates using FuGene 6 reagent (Roche; 3 ml FuGene/1 mg DNA). The MRTU constructs are regulated by a cis-regulating element (promoter). […] A major difference between the CIS and TRANS system is that in CIS activities of endogenous TFs are measured, whereas the TRANS assay evaluates changes in activities of exogenous, chimeric NR-Gal4 proteins. […] At the end of 24 hour incubation, total RNA was isolated using TriZol reagent (Invitrogen). The isolated RNA is then reverse-transcribed using oligo(dT) primer and Mo-MLV reverse transcriptase (Invitrogen) with DNAse I (Ambion) treatment for 30 min. The one-tenth of the produced cDNA was amplified by PCR using Taq DNA polymerase (Invitrogen) and two reporter sequence-specific primers. The PCR products were fluorescently labeled by primer extension with 6-arboxyfluorescein (6-FAM) 5'-labeled reporter sequence-specific primer (2 min at 95 C, 20 s at 68 C and 10 min at 72 C) and these products were digested with 5U of HpaI (New England Biolabs) for 2h at 37 C. The fragments were purified using Qiaquick PCR columns (Qiagen), analyzed on an ABI 3130xL genetic analyzer (Applied Biosystems) with peak positions identified by using a set of X-rhodamine (ROX)-labeled MapMarker1000 molecular weight standards (BioVentures). The raw capillary electrophoresis data was processed using Attagraph software (Attagene).", "values": [
      {"molecule": "O=C(Cl)Oc1ccccc1", "outcome": "inactive"},
      {"molecule": "Cc1cc([N+](=O)[O-])cc([N+](=O)[O-])c1O", "outcome": "inactive"},
      {"molecule": "O=[p+]1oc2ccccc2c2ccccc21", "note": "(stereo unspecified)", "outcome": "inactive"},
      {"molecule": "O=[P+](Oc1ccccc1)Oc1ccccc1", "outcome": "inactive"},
      {"molecule": "CC(C)CCCCCCCOP(OCCCCCCCC(C)C)Oc1ccccc1", "outcome": "inactive"},
      {"molecule": "O=[N+]([O-])c1ccc([N+](=O)[O-])cc1", "AC50": "active: 163 µM"},
      {"molecule": "O=C(Cl)OCCOC(=O)Cl", "outcome": "inactive"},
      {"molecule": "CN(C(=O)Cc1cccc2occc12)[C@H]1CC[C@@]2(CCCO2)C[C@@H]1N1CCCC1", "outcome": "inactive"},
      {"molecule": "N#CSc1ccc([N+](=O)[O-])cc1[N+](=O)[O-]", "outcome": "inactive"},
      {"molecule": "CCCCO[P+](=O)OCCCC", "outcome": "inactive"},
      {"molecule": "CCCCC(CC)CO[P+](=O)OCC(CC)CCCC", "note": "(stereo unspecified)", "outcome": "inactive"},
      {"molecule": "O=C1C2CC=CCC2C(=O)N1SC(Cl)(Cl)C(Cl)Cl", "note": "(stereo unspecified)", "outcome": "inactive"},
      {"molecule": "CCCCOP(OCCCC)OCCCC", "outcome": "inactive"},
      {"molecule": "ClP(Cl)c1ccccc1", "outcome": "inactive"},
      {"molecule": "CC(C)OP(=S)(OC(C)C)SCCNS(=O)(=O)c1ccccc1", "outcome": "inactive"},
      {"molecule": "O=P(Cl)(Oc1ccccc1)Oc1ccccc1", "outcome": "inactive"}
    ]}
  ]
}
